Measured values taken from PubChem BioAssay AID624304 (Sanford-Burnham Center for Chemical Genomics, 2012).
Only a part is listed here, and it is no random draw. The source made the active and inactive calls.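 Rule for the calls: active = interference check ratio from 0.5 to 1.5 plus GFP to RFP signal ratio inhibition reaching or exceeding a fixed threshold (cut at about 30% in these data, passing the limit was not always enough); inactive = the rest.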

Experiment: suppressors of acrylamide-induced Pgst-4::GFP reporter in worms, primary screen, SKN-1 inhibitor project, whole organism, uHTS, GFP/RFP fluorescence ratio, strain VP596 (AID 624304)
Conditions: C. elegans VP596 Pgst-4::GFP/RFP ratio, 24 h, at 21.8 µM, active compounds read high

SMILES | inhibition
CCOP(=O)(NC(=NC(C)c1ccccc1)NC(C)c1ccccc1)OCC (stereo unspecified) | inactive: -28.8%
